Data published in patent publication EP1435231B1, “Non-pegylated long-circulating liposomes” (Bharat Serums & Vaccines Ltd., priority 2002, dated 2004).

System: Dogs
Experiment: Subacute toxicity in dogs
Settings: dog, in vivo
Source text: • clinical signs of toxicity, • body weight, • haemodynamic parameters, • haematology and • biochemical parameters TABLE 7

Adriamycin^® was tested, and the “Kidney Function Test: blood urea nitrogen (BUN) and creatinine” value was “Increase” and the “Haemodynamic Parameters: Blood pressure” value (1 mg/kg) was “Normal”.
